According to patent publication US20220175776A1 (Frequency Therapeutics, Inc., priority 2019, published 2022):

System: Lgr5+ cochlear cells
Assay: Lgr5+ Assay (in vitro Lgr5+ cell proliferation assay)
Type: cell-based
Conditions: Table 6

CN1CCN(C(=O)CN[C@@H]2C[C@H]2c2ccc(OCc3ccccc3)cc2)CC1 (relative stereo)
Lgr5+ Assay: 41 nM
